Only a part is listed here, and it is no random draw. Activity calls are given as the source filed them. No stated cut-off is given here; in the data, active means inhibition above about 37%; inactive means the rest.
biological target: Small ubiquitin-related modifier 1 (Homo sapiens) (UniProt P63165); assay: SUMO1 binding to interaction partners, disruption – biochemical, uHTS, primary screen (AID 602429); settings: SUMO1 binding to a labelled peptide, TR-FRET, 1 h; at 20 µM; active compounds read high

Sequences of proteins named here, by UniProt entry; tags and fusion partners are left off.
UniProt P63165, whole entry, looked up: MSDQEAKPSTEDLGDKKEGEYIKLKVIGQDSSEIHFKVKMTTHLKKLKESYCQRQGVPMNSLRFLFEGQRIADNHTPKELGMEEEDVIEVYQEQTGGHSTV

SMILES | inhibition
NS(=O)(=O)c1cccc(NC(=O)COC(=O)C(O)(c2ccccc2)c2ccccc2)c1 | inactive: 9.82%
O=P1(Nc2ccc(Br)cn2)COc2ccccc2OC1 | inactive: 2.59%
Cc1ccc(OCC(=O)OC2CN3CCC2CC3)cc1 (stereo not drawn) | inactive: 0.0993%
O=[As](O)(c1cccs1)c1cccs1 | inactive: 0.419%
Cc1ccc(C(=O)OC2CN3CCC2CC3)cc1 (stereo not drawn) | inactive: -0.195%
CC1CCC(C(C)C)C(OP(=O)(Nc2ccccn2)c2ccccc2)C1 (stereo not drawn) | inactive: 13.5%
Cc1nn(-c2ccccc2)c2c1P(=O)(N1CCOCC1)N(C)C(c1ccccc1)=N2 (stereo not drawn) | inactive: -4.78%
CN(C)C1(CNC(=O)c2ccc(S(C)(=O)=O)cc2)CCCCC1 | inactive: -0.451%
CCCC1OP(=O)(Nc2ccccc2)OCC1CC (stereo not drawn) | inactive: -1.1%
O=C(/C=C/c1ccccc1)OC1CN2CCC1CC2 (stereo not drawn) | inactive: -6.95%
COc1ccccc1CNC(=O)COC(=O)C(O)(c1ccccc1)c1ccccc1 | inactive: 2.66%
CN(C(=O)Cc1ccc(Cl)c(Cl)c1)[C@@H]1CCCC[C@H]1N1CCCC1 | inactive: 3.16%
CC(C)/C=N\N=C(\N)N[N+](=O)[O-] | inactive: -1.5%
CC1(CBr)Cn2c(nc3ccccc3c2=O)S1 (stereo not drawn) | inactive: -0.756%
CCOP(=O)(NC(=NC(C)c1ccccc1)NC(C)c1ccccc1)OCC (stereo not drawn) | inactive: -0.251%
CCC1=CC2Cc3nc4ccc(Cl)cc4c(N)c3C(C1)C2 (stereo not drawn) | inactive: 0.0721%
O=P1(Nc2ccccn2)COc2ccccc2OC1 | inactive: -0.255%
CN(CCCl)Cc1cc(Cl)c(NC2=NCCN2)c(Cl)c1 | inactive: -23.3%
CCOP(=O)(Nc1ccc(C)cn1)OCC | inactive: 2.95%
CC(C)(C)C(=O)NC(Sc1ncccn1)C(Cl)(Cl)Cl (stereo not drawn) | inactive: 5.63%
Clc1n[nH]nc1-c1nn[nH][15n]1 | inactive: 0.592%
O=P1(N(CCCl)CCCl)NCCC(C(F)(F)F)O1 (stereo not drawn) | inactive: 0.239%
CSc1ccc(Nc2c([N+](=O)[O-])cc([N+](=O)[O-])cc2[N+](=O)[O-])cc1 | inactive: -49%
O=C(OC1CN2CCC1CC2)c1cccc([N+](=O)[O-])c1 (stereo not drawn) | inactive: -28.8%
CCOC(=O)c1ccc(NC(=O)C(C)(CCl)SC)cc1 (stereo not drawn) | inactive: 6.33%
CCC(C)N(CC(C)C)C(=S)SC(NC(C)=O)C(Cl)(Cl)Cl (stereo not drawn) | inactive: -0.718%
COC(=O)C1(C)COP(=O)(N2CCCC2)OC1 (stereo not drawn) | inactive: 3.09%
COP1(=S)c2c(C)nn(CCC#N)c2N=C(c2ccc(F)cc2)N1C (stereo not drawn) | inactive: -1.33%

— PubChem BioAssay AID602429 (Sanford-Burnham Center for Chemical Genomics, 2012)
